# Measured values published in US6043211A, “Method for inhibiting the activity of a platelet-derived growth factor receptor binding protein” (The Regents of the University of California, priority 1995, dated 2000).
# System: native mouse receptor
# Assay: Competitive binding of PDGF forms against 125I-PDGF on BALB/c 3T3 cells
# Conditions: mouse 3T3 cells, yeast-expressed homodimers
# Text: The ability of the human recombinant AA and BB homodimers to compete for the type B receptor sites and displace ^125 I-labeled PDGF (prepared as described below) was studied. Each homodimer was produced selectively by a yeast expression system and was purified from yeast media that is devoid of other mesenchymal cell growth factors, thus avoiding the artifact of contamination by factors that might be present in mammalian expression systems.
# BALB/c 3T3 cells and CHO transfectants (CHO-HR5) were incubated with ^125 I-PDGF in the presence of increasing concentrations of AA or BB. Binding was carried out at 37° C. for 45 min in whole cell suspension. Unbound, radiolabeled PDGF was removed by centrifugation on a Ficoll gradient Non-specific binding, determined by incubating CHO cells with ^125 I-PDGF, accounted for 25 percent of the bound radioactivity.
substance,measurement,value
BB: Human recombinant BB homodimer of PDGF produced by a yeast expression system,Relative affinity for the native mouse receptor,higher affinity than the AA form
